The list shows a part of the results, in another mix than the full data. Measured potencies and affinities stand elsewhere. Calls of active or inactive are those of the source. Cut-off read from the data, not from the text of the source: active = inhibition mostly above about 51% (no sharp cut-off); inconclusive = no clear call, values can overlap the other calls; inactive = mostly below about 53%.
Molecular target: Voltage-dependent N-type calcium channel subunit alpha-1B (Homo sapiens) (UniProt Q00975)
Assay: inhibitors of Mint1-CaV2.2 protein interaction, biochemical, HTRF (AID 2073)
Settings: at 20 µM, stronger effect = higher value

By UniProt entry, the sequences of proteins in these tests, tags left out.
UniProt Q00975, whole entry, looked up: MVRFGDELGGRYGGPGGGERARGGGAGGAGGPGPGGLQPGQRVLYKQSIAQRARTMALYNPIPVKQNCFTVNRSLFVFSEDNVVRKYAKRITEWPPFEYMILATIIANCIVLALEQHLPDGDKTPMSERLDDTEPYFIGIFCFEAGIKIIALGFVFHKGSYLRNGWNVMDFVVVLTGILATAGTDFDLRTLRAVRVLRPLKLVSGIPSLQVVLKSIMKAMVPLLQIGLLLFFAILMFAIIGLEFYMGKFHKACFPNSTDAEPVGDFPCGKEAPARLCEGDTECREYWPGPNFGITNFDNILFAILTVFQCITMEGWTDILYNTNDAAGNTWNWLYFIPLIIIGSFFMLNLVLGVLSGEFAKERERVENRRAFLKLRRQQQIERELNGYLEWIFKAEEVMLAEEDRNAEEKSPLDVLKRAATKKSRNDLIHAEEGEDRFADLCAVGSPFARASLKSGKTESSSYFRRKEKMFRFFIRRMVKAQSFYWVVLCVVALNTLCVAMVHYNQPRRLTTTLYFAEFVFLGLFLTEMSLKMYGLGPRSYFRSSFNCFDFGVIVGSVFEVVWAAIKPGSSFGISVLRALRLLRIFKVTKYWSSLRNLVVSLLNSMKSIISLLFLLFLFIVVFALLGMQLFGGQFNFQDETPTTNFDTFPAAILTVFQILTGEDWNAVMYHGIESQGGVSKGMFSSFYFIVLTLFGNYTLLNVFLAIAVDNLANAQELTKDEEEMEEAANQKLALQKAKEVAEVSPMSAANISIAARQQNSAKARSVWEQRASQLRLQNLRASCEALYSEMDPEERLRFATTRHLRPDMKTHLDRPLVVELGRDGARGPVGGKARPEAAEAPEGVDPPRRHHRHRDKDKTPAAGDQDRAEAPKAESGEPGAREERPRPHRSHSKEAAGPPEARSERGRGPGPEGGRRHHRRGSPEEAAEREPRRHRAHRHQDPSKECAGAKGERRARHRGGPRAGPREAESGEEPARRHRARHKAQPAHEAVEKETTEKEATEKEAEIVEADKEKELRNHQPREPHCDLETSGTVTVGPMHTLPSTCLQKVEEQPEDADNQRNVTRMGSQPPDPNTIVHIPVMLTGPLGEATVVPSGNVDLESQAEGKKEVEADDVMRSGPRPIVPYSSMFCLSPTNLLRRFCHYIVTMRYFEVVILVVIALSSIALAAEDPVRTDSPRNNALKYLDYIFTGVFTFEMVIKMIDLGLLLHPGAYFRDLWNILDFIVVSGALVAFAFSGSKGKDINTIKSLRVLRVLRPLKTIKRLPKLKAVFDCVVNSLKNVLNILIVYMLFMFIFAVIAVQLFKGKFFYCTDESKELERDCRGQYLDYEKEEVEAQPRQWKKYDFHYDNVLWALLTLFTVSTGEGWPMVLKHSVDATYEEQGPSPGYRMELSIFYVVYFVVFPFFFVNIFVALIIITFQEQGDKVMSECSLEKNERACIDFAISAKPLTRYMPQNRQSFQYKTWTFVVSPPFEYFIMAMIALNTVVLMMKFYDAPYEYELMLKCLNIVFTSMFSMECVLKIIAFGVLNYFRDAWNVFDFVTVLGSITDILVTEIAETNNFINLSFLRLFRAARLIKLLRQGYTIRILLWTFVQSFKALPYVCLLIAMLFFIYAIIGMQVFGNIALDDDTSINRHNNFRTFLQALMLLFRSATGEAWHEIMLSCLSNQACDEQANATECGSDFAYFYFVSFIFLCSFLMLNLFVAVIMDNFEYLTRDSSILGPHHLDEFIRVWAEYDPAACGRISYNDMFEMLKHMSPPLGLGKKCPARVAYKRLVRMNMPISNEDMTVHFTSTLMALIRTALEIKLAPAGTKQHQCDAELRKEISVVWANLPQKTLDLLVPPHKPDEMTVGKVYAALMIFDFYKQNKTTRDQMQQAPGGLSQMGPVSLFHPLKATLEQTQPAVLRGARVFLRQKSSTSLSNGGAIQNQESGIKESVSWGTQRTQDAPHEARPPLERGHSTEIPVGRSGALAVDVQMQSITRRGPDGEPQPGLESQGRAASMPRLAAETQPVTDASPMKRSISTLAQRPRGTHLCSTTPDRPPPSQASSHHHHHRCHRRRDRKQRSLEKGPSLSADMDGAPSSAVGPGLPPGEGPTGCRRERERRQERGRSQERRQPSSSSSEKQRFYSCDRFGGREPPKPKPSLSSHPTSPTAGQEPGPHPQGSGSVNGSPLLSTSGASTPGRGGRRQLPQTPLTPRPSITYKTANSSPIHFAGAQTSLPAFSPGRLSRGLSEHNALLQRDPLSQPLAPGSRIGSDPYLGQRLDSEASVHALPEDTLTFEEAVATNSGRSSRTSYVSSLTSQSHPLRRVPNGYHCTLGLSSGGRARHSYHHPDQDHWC

Row | SMILES | inhibition
1 | O=P1(Nc2ccccn2)COc2ccccc2OC1 | inactive: -1%
2 | CCOP(=O)(Nc1ccc(C)cn1)OCC | inactive: 15.4%
3 | CC(C)(C)C(=O)NC(Sc1ncccn1)C(Cl)(Cl)Cl (stereo not given) | inactive: -53.9%
4 | Clc1n[nH]nc1-c1nn[nH][15n]1 | inactive: 6.5%
5 | CN(C(=O)Cc1ccc(Cl)c(Cl)c1)[C@@H]1CCCC[C@H]1N1CCCC1 | inactive: -3.3%
6 | CC(C)/C=N\N=C(\N)N[N+](=O)[O-] | inactive: 6.8%
7 | O=[As](O)(c1ccccc1Br)c1ccccc1Br | inactive: 10.1%
8 | COP1(=S)c2c(C)nn(CCC#N)c2N=C(c2ccc(F)cc2)N1C (stereo not given) | inactive: -8%
9 | O=C(Nc1ccncc1[N+](=O)[O-])c1ccc([N+](=O)[O-])cc1[N+](=O)[O-] | inactive: 11.9%
10 | O=C(COc1ccccc1)OC1CN2CCC1CC2 (stereo not given) | inactive: -2%
11 | O=C(OC1CN2CCC1CC2)c1cccc([N+](=O)[O-])c1 (stereo not given) | inactive: 2.9%
12 | CCOC(=O)c1ccc(NC(=O)C(C)(CCl)SC)cc1 (stereo not given) | inactive: -1.8%
13 | CCC(C)N(CC(C)C)C(=S)SC(NC(C)=O)C(Cl)(Cl)Cl (stereo not given) | inactive: -20.6%
14 | CCOC(=O)Nc1ccc([As](=O)(O)O)c(O)c1 | inactive: 10.3%
15 | Cc1cc(SC(NC(=O)c2ccccc2)C(Cl)(Cl)Cl)nc(C(C)C)n1 (stereo not given) | inactive: -1.1%
16 | CCCCOc1ccc(C(=O)NCC2(N3CCCCC3)CCCCC2)cc1OC | inactive: 28%
17 | CCOC(=O)Nc1cccc([As](=O)(O)O)c1 | inactive: 10.3%
18 | Cc1cc(SC(NC=O)C(Cl)(Cl)Cl)ncn1 (stereo not given) | inactive: -1.4%

Row | SMILES | inhibition
19 | O=P(Nc1ccccn1)(c1cccc2ccccc12)c1cccc2ccccc12 | inactive: 0.2%
20 | O=[N+]([O-])c1ccc(Nc2ccc(Oc3ccc([N+](=O)[O-])cc3[N+](=O)[O-])cc2)c([N+](=O)[O-])c1 | inactive: 19%
21 | O=[As](O)(c1ccc(O)cc1)c1ccccc1O | inactive: -2.6%
22 | C[As](=O)(O)c1cccc(C(=O)O)c1 | inactive: 3.7%
23 | Cc1ccc(OP(=O)(Nc2ccc([N+](=O)[O-])cn2)Oc2ccc(C)cc2)cc1 | inactive: 17.9%
24 | Cc1ccc2nc3c(c(C)c2c1)CC(C(Cl)Cl)S3 (stereo not given) | inactive: 13%
25 | ClCCSc1nnc(-c2cccnc2)o1 | inactive: 5.5%
26 | CC(C)c1ccc(OP(=O)(Nc2ccccn2)Oc2ccccc2F)cc1 (stereo not given) | inactive: 22.1%
27 | O=[N+]([O-])c1cc([N+](=O)[O-])c(-c2ccn[nH]2)s1 | inactive: 21%
28 | CCN(CC)C(=S)SC(NC=O)C(Cl)(Cl)Cl (stereo not given) | inactive: -21.1%
29 | CC(C)NC(=O)NP(=O)(Oc1ccccc1)Oc1ccccc1 | inactive: 7.3%
30 | Cc1c2c(nc3ccccc13)SC(C(Cl)Cl)C2 (stereo not given) | inactive: 17.7%
31 | Cc1cc(=O)[nH]c(N[N+](=O)[O-])n1 | inactive: -0.8%
32 | O=C(OC1CN2CCC1CC2)C12CC3CC(CC(C3)C1)C2 (stereo not given) | inactive: -3.9%
33 | COc1cc(I)ccc1[As](=O)(O)O | inactive: 1%
34 | COc1ccc2nc(NP(=O)(c3ccccc3)c3ccccc3)sc2c1 | inactive: -2.4%
35 | COc1ccc(N/C(=N/P(=O)(N2CCOCC2)N2CCOCC2)N2CCOCC2)cc1 | inactive: -1.9%
